US6677306B1, “Chondrogenic and osteogenic inducing molecule” (Northwestern University, priority 1998, dated 2004)

Columns and labels:
[1] = system: embryonic muscle fibroblasts (EMF); assay: EMF [35S]-SO4-incorporation assay (sulfate incorporation into proteoglycan); format: cell-based, rat; details: FIG. 2B
From the text: Embryonic Muscle Fibroblast (EMF) Tissue Culture Assay Embryonic Muscle Fibroblasts. Rat EMF cells were derived from the thigh muscles of 20 day old Sprague Dawley rat embryos for use in primary tissue culture assays using a modification of the Koskinen harvesting technique (Koskinen et al., 1985), and grown in growth media (GM) [α-Modified Eagle's Medium (αMEM , Life Technologies, Gaithersburg, Md.), containing 10% heat inactivated fetal bovine serum (FBS), 1% Penicillin/Streptomycin (P/S)] in 5% O2/95% air at 37° C. EMFs were frozen at passage 2 (P-2).
Short Term Culture and Labeling with ^35SO4—Sulfate. […]
Assay of ^35S Sulfate Incorporation Into Proteoglycans in the Medium. In a departure from the Koskinen et al. (1985) protocol, glycosaminoglycan synthesis was routinely determined by the measurement of incorporation of ^35S sulfate (ICM Biomedical, Costa Mesa, Calif.) into the total cetylpyridinium chloride (CPC)-precipitable materials in the media without prior papain digestion. […]
The samples were filtered through Whatman GF/A glass microfibre filters using a Millipore 12 well filtration device. […] Then 5 ml scintillation cocktail was added per vial and the radioactive counts were measured in the scintillation counter. […]

[2] = system: thigh muscle of Long-Evans rats; assay: Bone formation in vivo, implantation in muscle with collagen carrier; set-up: species or system rat; details: 25 μg S-100 or 35 ng rhBMP-2 on collagen, intramuscular, nine weeks
Description: For implantation, 25 μg S-100 or 35 ng rhBMP-2 in 200 μl of PBS/0.1% BSA were absorbed onto 0.45 mg rat tail tendon collagen and lyophilized. The coated collagen was sterilized, then placed into sterile 5 mm gelatin capsules. Capsules were prepared with the collagen only as a negative control. Demineralized insoluble dentin matrix was used as a positive control. A 1 cm incision was made and a small intramucscular pouch was created by blunt dissection into the thigh muscle of the hind limbs of 100 g (4 week old) Long-Evans rats. The capsules were inserted, then the fascia was closed using 4-0 Vicryl sutures. The skin was closed with 4-0 silk sutures. All protocols for anesthesia, surgery, recovery, care and euthanasia were approved by the Northwestern University Animal Care and Use Committee. All test samples were implanted in the right thigh, all negative collagen controls in the left. At nine weeks, the animals were euthanized and the tissues were collected and prepared for histologic examination, using the von Kossa stain for the presence of mineral deposition.

[3] = system: embryonic rat muscle fibroblasts (EMF); assay: Cell number of EMF after exposure to factors; format: cell-based; details: after 5 days in culture, after a 24 h exposure
Description: In vitro assay for chondrogenic activity: The purified recombinant proteins were tested for biological activity by the assay for enhanced incorporation of ^35S—SO4 into proteoglycan (8,11) by embryonic rat muscle fibroblasts (EMF). The EMF were seeded onto type I collagen coated 96 well plates, with an initial loading of 10^4 cell/well. The cells were grown to near confluence in alpha MEM, 10% FBS, 1% Pen/Strep in 5 days. At day 5 the growth media was replaced with conditioning media (CM), alpha MEM, 0.5% FBS, 1% Pen/Strep, and grown for an additional 24 h. Fresh CM containing the factors to be tested, was added at the concentrations noted. Four hours later, 1 μCi^35 S—SO4 in 10 μL sterile PBS was added per well, and incubation was continued for 20 h. The ^35S—SO4 incorporated into secreted proteoglycan was determined by precipitation of the proteoglycan with cetyl pyridinium chloride, as described above, followed by scintillation counting of the precipitate. The cell layer was trypsinized and the number of cells counted. Incorporation is presented as counts per minute per cell ×10^3. Recombinant human BMP2 (A kind gift from the Genetics Institute, Boston, Mass.) and the bioactive crude S100 fractions from rat incisor dentin (Amar et al., 1991) and/or bovine dentin (see Example 1) were used as the positive controls. […]

B1: rhBMP-2: recombinant human BMP-2, gift from Genetics Institute, positive control (protein, UniProt P12643 283-396, looked up)
Bone morphogenetic protein 2: QAKHKQRKRLKSSCKRHPLYVDFSDVGWNDWIVAPPGYHAFYCHGECPFPLADHLNSTNHAIVQTLVNSVNSKIPKACCVPTELSAISMLYLDENEKVVLKNYQDMVVEGCGCR
concentration level at which active in sulfate incorporation [1]: 50 to 100 ng/mL | cartilage/bone formation at implant, von Kossa histology [2]: heavily von Kossa stained mix of cartilage and bone | cell number (growth factor action) [3]: increase
